According to patent US9694016B2 (Novartis AG, priority 2013, dated 2017):
pIC50: −log10 of the molar value.

The chains behind the UniProt entries cited, without tags or fusion partners.
UniProt P04049, whole entry Y340E/Y341E: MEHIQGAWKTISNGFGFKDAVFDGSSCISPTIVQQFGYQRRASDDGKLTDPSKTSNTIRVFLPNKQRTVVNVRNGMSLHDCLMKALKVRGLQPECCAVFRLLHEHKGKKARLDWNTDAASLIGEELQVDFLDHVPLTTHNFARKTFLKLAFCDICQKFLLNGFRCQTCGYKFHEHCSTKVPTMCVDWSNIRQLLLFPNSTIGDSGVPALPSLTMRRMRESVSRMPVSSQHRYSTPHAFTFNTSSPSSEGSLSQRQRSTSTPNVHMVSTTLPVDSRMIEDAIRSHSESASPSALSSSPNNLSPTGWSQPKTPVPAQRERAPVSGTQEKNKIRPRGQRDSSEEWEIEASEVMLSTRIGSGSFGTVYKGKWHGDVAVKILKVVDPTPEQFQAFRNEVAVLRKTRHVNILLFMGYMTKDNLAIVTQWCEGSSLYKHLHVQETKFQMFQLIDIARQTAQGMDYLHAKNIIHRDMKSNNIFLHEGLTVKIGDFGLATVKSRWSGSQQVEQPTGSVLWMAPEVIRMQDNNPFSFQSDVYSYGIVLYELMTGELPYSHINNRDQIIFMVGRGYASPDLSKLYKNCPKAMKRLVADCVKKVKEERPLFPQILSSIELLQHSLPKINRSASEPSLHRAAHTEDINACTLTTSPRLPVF

Target: C-Raf FL (full-length C-Raf protein, Y340E and Y341E activating mutations) (Homo sapiens (Human), UniProt P04049, Y340E/Y341E)
Format: biochemical
Conditions: AlphaScreen, 60 min pre-incubation, reaction 1 hour at room temperature; read-out: c-Raf FL IC-50

Cc1ncc(NC(=O)c2ccnc(C(C)(C)O)c2)cc1-c1cc(N2CCOCC2)nc(N2CC(O)C2)c1 [Example 1082, N-(2′-(3-hydroxyazetidin-1-yl)-2-methyl-6′-morpholino-[3,4′-bipyridin]-5-yl)-2-(2-hydroxypropan-2-yl)isonicotinamide]
pIC50: 7.98

Cc1ncc(NC(=O)c2ccnc(C(C)(C)C#N)c2)cc1-c1cc(N2CCOCC2)nc(N2CC(O)C2)c1 [Example 1083, 2-(2-cyanopropan-2-yl)-N-(2′-(3-hydroxyazetidin-1-yl)-2-methyl-6′-morpholino-[3,4′-bipyridin]-5-yl)isonicotinamide]
pIC50: 8.27

Cc1ncc(NC(=O)c2cccc(S(C)(=O)=O)c2)cc1-c1cc(N2CCOCC2)nc(N2CC(O)C2)c1 [Example 1084, N-(2′-(3-hydroxyazetidin-1-yl)-2-methyl-6′-morpholino-[3,4′-bipyridin]-5-yl)-3-(methylsulfonyl)benzamide]
pIC50: 8.47

Cc1ncc(NC(=O)c2cc(CN(C)C)cc(C(F)(F)F)c2)cc1-c1cc(N2CCOCC2)nc(N2CC(O)C2)c1 [Example 1085, 3-((dimethylamino)methyl)-N-(2′-(3-hydroxyazetidin-1-yl)-2-methyl-6′-morpholino-[3,4′-bipyridin]-5-yl)-5-(trifluoromethyl)benzamide]
pIC50: 7.56

CCn1cc(C(=O)Nc2cnc(C)c(-c3cc(N4CCOCC4)nc(N4CC(O)C4)c3)c2)cc(C(F)(F)F)c1=O [Example 1086, 1-ethyl-N-(2′-(3-hydroxyazetidin-1-yl)-2-methyl-6′-morpholino-[3,4′-bipyridin]-5-yl)-6-oxo-5-(trifluoromethyl)-1,6-dihydropyridine-3-carboxamide]
pIC50: 8.48

CCN1CCN(c2cc(C(=O)Nc3cnc(C)c(-c4cc(N5CCOCC5)nc(N5CC(O)C5)c4)c3)cc(C(F)(F)F)c2)CC1 [Example 1087, 3-(4-ethylpiperazin-1-yl)-N-(2′-(3-hydroxyazetidin-1-yl)-2-methyl-6′-morpholino-[3,4′-bipyridin]-5-yl)-5-(trifluoromethyl)benzamide]
pIC50: 8.28

Cc1ncc(NC(=O)c2ccnc(C(F)(F)F)c2)cc1-c1cc(N2CCOCC2)nc(N2CC(O)C2)c1 [Example 1088, N-(2′-(3-hydroxyazetidin-1-yl)-2-methyl-6′-morpholino-[3,4′-bipyridin]-5-yl)-2-(trifluoromethyl)isonicotinamide]
pIC50: 8.95

Cc1ncc(NC(=O)c2ccnc(C(C)(C)C)c2)cc1-c1cc(N2CCOCC2)nc(N2CC(O)C2)c1 [Example 1089, 2-(tert-butyl)-N-(2′-(3-hydroxyazetidin-1-yl)-2-methyl-6′-morpholino-[3,4′-bipyridin]-5-yl)isonicotinamide]
pIC50: 7.69

Cc1ncc(NC(=O)c2ccnc(S(C)(=O)=O)c2)cc1-c1cc(N2CCOCC2)nc(N2CC(O)C2)c1 [Example 1090, N-(2′-(3-hydroxyazetidin-1-yl)-2-methyl-6′-morpholino-[3,4′-bipyridin]-5-yl)-2-(methylsulfonyl)isonicotinamide]
pIC50: 7.90

Cc1ncc(NC(=O)c2cccc(C(C)(C)S(C)(=O)=O)c2)cc1-c1cc(N2CCOCC2)nc(N2CC(O)C2)c1 [Example 1091, N-(2′-(3-hydroxyazetidin-1-yl)-2-methyl-6′-morpholino-[3,4′-bipyridin]-5-yl)-3-(2-(methylsulfonyl)propan-2-yl)benzamide]
pIC50: 6.53

Cc1ncc(NC(=O)c2cc(C3CC3)on2)cc1-c1cc(N2CCOCC2)nc(N2CC(O)C2)c1 [Example 1093, 5-cyclopropyl-N-(2′-(3-hydroxyazetidin-1-yl)-2-methyl-6′-morpholino-[3,4′-bipyridin]-5-yl)isoxazole-3-carboxamide]
pIC50: 9.05

Cc1ncc(NC(=O)c2cccc(C(F)(F)F)c2)cc1-c1cc(N2CCOCC2)nc(N2CC(O)C2)c1 [Example 1094, N-(2′-(3-hydroxyazetidin-1-yl)-2-methyl-6′-morpholino-[3,4′-bipyridin]-5-yl)-3-(trifluoromethyl)benzamide]
pIC50: 9.09

Cc1ccc(NC(=O)c2cc(C3CC3)on2)cc1-c1cc(N2CCOCC2)nc(N2CC(O)C2)c1 [Example 1095, 5-cyclopropyl-N-(3-(2-(3-hydroxyazetidin-1-yl)-6-morpholinopyridin-4-yl)-4-methylphenyl)isoxazole-3-carboxamide]
pIC50: 9.57

Cc1ccc(NC(=O)c2cccc(S(C)(=O)=O)c2)cc1-c1cc(N2CCOCC2)nc(N2CC(O)C2)c1 [Example 1096, N-(3-(2-(3-hydroxyazetidin-1-yl)-6-morpholinopyridin-4-yl)-4-methylphenyl)-3-(methylsulfonyl)benzamide]
pIC50: 9.35

Cc1ccc(NC(=O)c2ccnc(S(C)(=O)=O)c2)cc1-c1cc(N2CCOCC2)nc(N2CC(O)C2)c1 [Example 1097, N-(3-(2-(3-hydroxyazetidin-1-yl)-6-morpholinopyridin-4-yl)-4-methylphenyl)-2-(methylsulfonyl)isonicotinamide]
pIC50: 9.02

Cc1ccc(NC(=O)c2ccnc(C(C)(C)O)c2)cc1-c1cc(N2CCOCC2)nc(N2CC(O)C2)c1 [Example 1098, N-(3-(2-(3-hydroxyazetidin-1-yl)-6-morpholinopyridin-4-yl)-4-methylphenyl)-2-(2-hydroxypropan-2-yl)isonicotinamide]
pIC50: 8.93

Cc1ccc(NC(=O)c2cccc(C(C)(C)S(C)(=O)=O)c2)cc1-c1cc(N2CCOCC2)nc(N2CC(O)C2)c1 [Example 1099, N-(3-(2-(3-hydroxyazetidin-1-yl)-6-morpholinopyridin-4-yl)-4-methylphenyl)-3-(2-(methylsulfonyl)propan-2-yl)benzamide]
pIC50: 8.50

Cc1ccc(NC(=O)c2cccc(-c3nnco3)c2)cc1-c1cc(N2CCOCC2)nc(N2CC(O)C2)c1 [Example 1100, N-(3-(2-(3-hydroxyazetidin-1-yl)-6-morpholinopyridin-4-yl)-4-methylphenyl)-3-(1,3,4-oxadiazol-2-yl)benzamide]
pIC50: 9.17

Cc1ncc(NC(=O)c2cnnc(C3CC3)c2)cc1-c1cc(N2CCOCC2)nc(N2CC(C)(O)C2)c1 [Example 1101, 6-cyclopropyl-N-(2′-(3-hydroxy-3-methylazetidin-1-yl)-2-methyl-6′-morpholino-[3,4′-bipyridin]-5-yl)pyridazine-4-carboxamide]
pIC50: 8.58

Cc1ncc(NC(=O)c2ccnc(C3CC3)c2)cc1-c1cc(N2CCOCC2)nc(N2CC(C)(O)C2)c1 [Example 1102, 2-cyclopropyl-N-(2′-(3-hydroxy-3-methylazetidin-1-yl)-2-methyl-6′-morpholino-[3,4′-bipyridin]-5-yl)isonicotinamide]
pIC50: 9.07

Cc1ncc(NC(=O)c2ccnc(C(F)F)c2)cc1-c1cc(N2CCOCC2)nc(N2CC(C)(O)C2)c1 [Example 1103, 2-(difluoromethyl)-N-(2′-(3-hydroxy-3-methylazetidin-1-yl)-2-methyl-6′-morpholino-[3,4′-bipyridin]-5-yl)isonicotinamide]
pIC50: 8.84

Cc1ncc(NC(=O)c2ccnc(C(F)(F)F)c2)cc1-c1cc(N2CCOCC2)nc(N2CC(C)(O)C2)c1 [Example 1104, N-(2′-(3-hydroxy-3-methylazetidin-1-yl)-2-methyl-6′-morpholino-[3,4′-bipyridin]-5-yl)-2-(trifluoromethyl)isonicotinamide]
pIC50: 8.84
